{"source": "PubChem BioAssay AID598", "about": "(SRMLSC, 2007)", "note": "Only a part is listed here, and it is no random draw. The source made the active and inactive calls.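 How the source made its calls: active means viability at or below 40%; inactive means viability above 40%.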"}
{"experiment": "proliferation blockers of H69AR lung cancer cells, primary screen, cell-based, human, 86K library (AID 598);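 further: multidrug resistant small cell line overexpressing MRP-1 efflux transporter; 100% = mean luminescence of untreated control wells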", "details": "H69AR lung tumor viability, ATP luminescence, 72 h; at 10 µM; hits give low values"}
{"smiles": "Fc1ccccc1NC1CCN(Cc2ccccc2)CC1", "viability": "inactive: 94%"}
{"smiles": "CCOc1ncccc1C(=O)NCC1(N2CCOCC2)CCCCC1", "viability": "inactive: 97.2%"}
{"smiles": "CCC(CO)(C(=O)OC1CN2CCC1CC2)c1ccccc1", "note": "(centres undefined)", "viability": "inactive: 99.6%"}
{"smiles": "N/C(=N\\O)c1c(N)no[n+]1[O-]", "viability": "inactive: 104%"}
{"smiles": "c1ccc(CN2CCC(Nc3ccccc3)CC2)cc1", "viability": "inactive: 96.3%"}
{"smiles": "N#CC1(Nc2ccccc2)CCN(CCc2ccccc2)CC1", "viability": "inactive: 96.5%"}
{"smiles": "O=C(NCC1(N2CCOCC2)CCCCC1)c1cc(=O)[nH]c2ccccc12", "viability": "inactive: 95.7%"}
{"smiles": "O=C(NCC1(N2CCOCC2)CCCCC1)c1cc2ccccc2o1", "viability": "inactive: 85.6%"}
{"smiles": "O=C(OC1CN2CCC1CC2)C1c2ccccc2Oc2ccccc21", "note": "(centres undefined)", "viability": "inactive: 79.7%"}
